## Yeast mating assay B: variants of the scFv Ab-14

Antigen: PDVDLGDISGINAS, a 14-residue peptide of the SARS-CoV-2 spike HR2 region.

Each scFv is VH, a 15-residue (Gly4Ser)3 linker, VL, as in the parent Ab-14, and differs from it in the CDRs of the heavy chain only.
VH: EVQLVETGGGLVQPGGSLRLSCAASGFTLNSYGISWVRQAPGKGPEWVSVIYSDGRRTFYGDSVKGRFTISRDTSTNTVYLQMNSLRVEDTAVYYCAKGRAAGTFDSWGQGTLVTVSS
VL: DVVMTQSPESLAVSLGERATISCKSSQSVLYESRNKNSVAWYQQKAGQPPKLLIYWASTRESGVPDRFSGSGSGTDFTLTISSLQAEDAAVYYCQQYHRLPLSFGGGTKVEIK

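Designed CDR sequences, proposed from the first random library and measured here. Their group label is 14H_En_HC (En: ensemble of fine-tuned language models; HC: hill climbing; a sequence that several methods proposed may carry one label only). The scFvs were displayed on barcoded MATa yeast, the peptide on MATalpha yeast. After mating in shaken culture at 30 °C for 16 h, diploids were selected and their barcode pairs sequenced. Read counts were normalised to the haploid input and turned into Kd by a linear fit to BCL2-family pairs of known affinity, for each replicate. The assay was run in six technical replicates.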

Each variant is given by its three heavy chain CDRs, as the data file delimits them; those of the parent are GFTLNSYGIS, VIYSDGRRTFYGDSVK, GRAAGTFDS. Affinities are written as log10 Kd with Kd in nM; a lower number is a better binder. The mean shown is taken over the replicates in which the pair was detected. "n.d." means that the variant was in the library but no mating with the target was seen in that replicate; the authors take this as a sign of poor binding, and no number exists. Three control strains display no target. For all heavy chain designs, 1% of the pairings with them gave a signal, with a median of 2.08 and one signal in twenty below 0.84, so weak values seen in few replicates may be background. For each scFv, signals with the empty controls are counted beside the result, with their mean in brackets. The authors averaged sequences with at least three values out of six and counted those with two or fewer as poor binders. Values of this round are not directly comparable with the first-round values of the same sequences.

| CDR-H1 | CDR-H2 | CDR-H3 | replicates, log10 nM | mean log10 Kd (nM) | empty controls |
|---|---|---|---|---|---|
| GFDLNEYGIS | VIYADGRRTAYTDSVK | GTNAGTFDI | -0.95 / -0.34 / -0.52 / -0.09 / -0.72 / -0.52 | -0.52 | 0 of 18 |
| GFDLNEYGIS | VIYADGRRTYYIDSVK | GEQAGTFDS | -0.48 / -0.36 / -0.45 / -0.82 / -0.53 / -0.26 | -0.48 | 0 of 18 |
| GFGLDEYGIS | VIYADGRRTFYSDSVK | GSTAGTFDV | -0.47 / -0.21 / -0.76 / -0.71 / -0.79 / -0.73 | -0.61 | 0 of 18 |
| GFDLNEYGIS | VIYADGRRTAYADSVK | GENAGTFDS | -0.08 / -0.32 / -0.05 / -0.97 / -0.57 / -0.52 | -0.42 | 0 of 18 |
| GFDLNEYGIS | VIYADGMRTHYTDSVK | GNEAGTFDT | 0.06 / 0.01 / 0.12 / -0.23 / 0.15 / 0.33 | 0.07 | 0 of 18 |
| GFDLNEYGIS | VIYADGKRTFYADSVK | GEVAGTFVQ | -0.13 / -0.06 / 0.15 / -0.31 / -0.04 / -0.19 | -0.10 | 1 of 18 (3.11) |
| GFDLDEYGIS | VIYADGRRTFYADSVK | GTNAGTFTS | 0.65 / 0.47 / 0.23 / 0.46 / 1.03 / 0.99 | 0.64 | 0 of 18 |
| GFDLNEYGIS | VIYADGMRTFYIDSVK | GEIAGTFDV | -0.29 / -0.23 / 0.00 / -0.59 / -0.23 / -0.22 | -0.26 | 0 of 18 |
| GFDLNEYGIS | VIYADGRRTFYSDSVK | GENAGFFDE | n.d. / n.d. / n.d. / n.d. / n.d. / n.d. | n.d. | 0 of 18 |
| GFDLNEYGIS | VIYADGRRTAYIDSVK | GTAAGTFDS | -0.47 / -1.33 / -0.97 / -1.51 / -0.74 / -1.12 | -1.03 | 0 of 18 |
| GFDLDEYGIS | VIYADGRRTFYADSVK | GENAGTFTS | 0.43 / 0.30 / 0.26 / 0.36 / 0.12 / 0.61 | 0.35 | 0 of 18 |
| GFDLNEYGIS | VIYADGRRTFYADSVK | GEVAGTFIQ | 0.43 / -0.11 / 0.02 / -0.40 / -0.11 / -0.11 | -0.05 | 0 of 18 |
| GFDLNEYGIS | VIYADGRRTFYTDSVK | GANAGTFDV | -0.72 / -0.87 / -0.73 / -1.03 / -1.15 / -0.73 | -0.87 | 0 of 18 |
| GFNLNEYGIS | VIYADGRRTFYTDDVK | GELAGTFDL | -0.61 / -0.74 / -0.57 / -0.74 / -0.71 / -0.36 | -0.62 | 0 of 18 |
| GFNLDEYGIS | VIYADGRRTFYADSVK | GNVAGTFDV | 0.86 / 0.99 / 0.88 / n.d. / n.d. / 1.50 | 1.06 | 0 of 18 |
| GFDIDEYGIS | VIYADGMRTFYTDSVK | GEQAGTFDA | 1.07 / 0.78 / 0.15 / 0.92 / 1.72 / 1.17 | 0.97 | 0 of 18 |
| GFDLNEYGIS | VIYADGKRTFYSDSVK | GTNGGTFDI | 0.38 / 0.61 / 0.18 / 0.34 / -0.20 / 0.16 | 0.25 | 0 of 18 |
| GFDLNEYGIS | VIYADGRRTAYSDSVK | GEQAGTFDV | -0.09 / -0.60 / -0.49 / -0.32 / -0.18 / -0.52 | -0.37 | 0 of 18 |
| GFDLDEYGIS | VIYADGRRTFYQDDVK | GNVAGTFDS | -0.13 / -1.19 / -0.87 / -0.61 / -0.45 / -0.31 | -0.59 | 0 of 18 |
| GFNLDEYGIS | VIYADGRRTFYADSVK | GSVGGTFDT | -0.06 / -0.44 / -0.18 / -0.63 / -0.08 / -0.20 | -0.27 | 0 of 18 |
| GFDLESYGIS | VIYADGMRTFYADKVK | GENAGTFDI | 0.11 / -0.27 / -0.31 / -0.37 / -0.15 / 0.09 | -0.15 | 0 of 18 |
| GFDLNEYGIS | VIYADGRRTAYTDSVK | GANAGTFDI | -0.74 / -0.23 / -0.69 / -1.06 / -0.48 / -0.03 | -0.54 | 0 of 18 |
| GFDLNEYGIS | VIYADGQRTSYADSVK | GQLAGTFDQ | -0.47 / -0.42 / -0.50 / -0.56 / -0.60 / -0.16 | -0.45 | 0 of 18 |
| GFDLNEYGIS | VIYADGRRTFYSDSVK | GQLAGTFDS | -0.48 / -0.13 / -0.28 / -0.54 / -0.51 / -0.35 | -0.38 | 0 of 18 |
| GFDLESYGIS | VIYADGRRTFYSDSVK | GKNAGTFDI | -0.64 / -0.70 / -0.65 / -0.79 / -0.97 / -0.62 | -0.73 | 0 of 18 |
| GFDLNEYGIS | VIYADGKRTAYIDSVK | GNQAGTFDQ | 0.05 / -0.21 / -0.32 / -0.31 / 0.10 / 0.11 | -0.10 | 1 of 18 (1.54) |
| GFDLNEYGIS | VIYADGLRTFYTDSVK | GENAGTFDS | n.d. / n.d. / n.d. / n.d. / n.d. / n.d. | n.d. | 0 of 18 |
| GFDLNEYGIS | VIYADGMRTAYSDSVK | GGNAGTFDS | -0.09 / -0.43 / -0.31 / -0.56 / -0.62 / -0.47 | -0.41 | 1 of 18 (2.59) |
| GFDLNEYGIS | VIYADGRRTFYSDSVK | GANAGTFDK | 0.07 / -0.48 / -0.46 / 0.11 / -0.57 / -0.28 | -0.27 | 0 of 18 |
| GFDINEYGIS | VIYADGQRTFYADSVK | GNQAGTFDL | -0.07 / -0.55 / -0.56 / -1.08 / -1.27 / -0.43 | -0.66 | 0 of 18 |
| GFDLNEYGIS | VIYADGRRKVYADSVK | GNTAGTFDV | -0.09 / 0.18 / 0.09 / -0.02 / -0.12 / 0.03 | 0.01 | 1 of 18 (2.69) |
| GFDLNEYGIS | VIYADGRRTFYADNVK | GNVAGTFDQ | -0.89 / -0.77 / -1.08 / 0.11 / -1.47 / -1.22 | -0.89 | 0 of 18 |
| GFDLNEYGIS | VIYADGRRTFYADKVK | GEVAGTFDV | -0.56 / -0.66 / -0.62 / -0.64 / -0.79 / -0.21 | -0.58 | 0 of 18 |
| GFDLDEYGIS | VIYADGRRTFYSDNVK | GEVAGTFDI | -0.41 / -0.33 / -0.71 / -0.14 / -0.62 / -0.22 | -0.41 | 1 of 18 (2.64) |
| GFELDEYGIS | VIYADGRRTFYADSVK | GENAGTFDM | 1.38 / 0.26 / 1.00 / 0.94 / 3.04 / 0.45 | 1.18 | 0 of 18 |
| GFDLNEYGIS | VIYADGRRTFYADSVK | GNAAGTFVN | -0.42 / -0.15 / -0.51 / -0.31 / -0.52 / -0.48 | -0.40 | 0 of 18 |
| GFDLNEYGIS | VIYADGKRTFYADSVK | GEAGGTFDV | 0.04 / 0.28 / 0.48 / 0.28 / -0.10 / 0.30 | 0.21 | 0 of 18 |
| GFDLNEYGIS | VIYADGRRTAYSDSVK | GEAAGTFDK | -0.50 / -0.77 / -0.63 / -0.75 / -0.57 / -0.38 | -0.60 | 2 of 18 (2.61) |
| GFDLNEYGIS | VIYADGRRTFYADSVK | GEAGGTFDA | 0.15 / -0.01 / 0.23 / 0.60 / 0.41 / 1.15 | 0.42 | 1 of 18 (2.02) |
| GFDLNEYGIS | VIYADGRRSAYADSVK | GQNAGTFDV | 0.60 / 0.39 / 0.10 / 0.27 / 1.11 / -0.18 | 0.38 | 0 of 18 |
| GFDLNEYGIS | VIYADGRRTAYSDSVK | GEAGGTFDN | 0.81 / 0.64 / -0.18 / 0.30 / n.d. / 0.74 | 0.46 | 0 of 18 |
| GFNLNEYGIS | VIYADGRRTFYADSVK | GEAAGTFDL | 0.57 / 0.16 / 1.60 / -0.05 / 0.39 / 0.65 | 0.56 | 0 of 18 |
| GFDLDEYGIS | VIYADGKRTFYSDSVK | GSTAGTFDV | 0.01 / -0.15 / -0.44 / -0.06 / 0.07 / -0.64 | -0.20 | 0 of 18 |

Data: MIT Lincoln Laboratory AlphaSeq set, Li et al. 2023, doi:10.1038/s41467-023-39022-2, as distributed in FLAb.